From US20240148836A1, “COMPOSITION FOR TREATING CANCER EXPRESSING SPARC” (SEOUL NATIONAL UNIVERSITY R&DB FOUNDATION, priority 2021, published 2024)
“Also recorded” adds a separate entry of the source.

Assays:
U87MG cells [1] = test: Cellular cytotoxicity, Cell Counting Kit-8 (CCK-8) assay; format: cell-based, Human; conditions: for IC50: U87MG cells, 72 h
Protocol: (§1) Human glioma cells (U87MG) were obtained from American Type Culture Collection (ATCC; Manassas, VA, USA). Low SPARC-expressing U87MG cells, U87MG-shSPARC, were established from a previous study.
(§2) (1) U87MG and U87MG-shSPARC cells were added to 96-well plates (4000 cells/well). After overnight incubation, the cells were incubated with CDDP, HSA-CDDP at different concentrations for 72 h. Cell viability was analyzed using a Cell Counting Kit-8 (CCK-8, Dojindo Molecular Technologies, Tokyo, Japan) assay according to the manufacturer's protocols.
(2) To execute cellular cytotoxicity experiments of HSA bound with CDDPs in different numbers, U87MG cells were added to a 96-well plate (4000 cells/well) and incubated overnight. Then, the cells were incubated with HSA-CDDP(1.5), HSA-CDDP(2.3), HSA-CDDP(5.4) and HSA-CDDP(7.7) at different concentrations, respectively, for 72 hours. Cell viability was analyzed using a Cell Counting Kit-8 (CCK-8, Dojindo Molecular Technologies, Tokyo, Japan) assay according to the manufacturer's protocols.

U87MG-shSPARC cells [2] = test: as above; format: cell-based, Human; conditions: 72 h, CCK-8, n=5, Table 1
Protocol: as §1, §2

U87MG cells [3] = test: Cell apoptosis, Annexin V-FITC/PI flow cytometry; format: cell-based, Human
Protocol: (§3) U87MG and U87MG-shSPARC cells were placed into 6-well plates (1.2×10^5 cells/well). After overnight incubation, cells were treated with CDDP, HSA-CDDP for 72 h. Cells were then harvested and co-stained with PI and Annexin V using an Annexin V-FITC apoptosis detection kit (BD, San Jose, CA, USA). The apoptosis of cells was analyzed using flow cytometry.

U87MG-shSPARC cells [4] = test: Cell apoptosis, Annexin V-FITC/PI flow cytometry; format: cell-based, Human; conditions: 19.3 μM, 72 h, FIG. 3
Protocol: as §3

U87MG cells [5] = test: Confocal microscopy cellular uptake of FNR648-HSA-CDDP; format: cell-based, Human; conditions: U87MG vs U87MG-shSPARC cells, 2 h at 37° C., n=5, p<0.001
Protocol: (§4) We conjugated HSA with FNR648 fluorescence dye following the procedure described in our previous publication. For FNR648 dye labeling to HSA-CDDP, we used the same method as that used for HSA. First, HSA-CDDP was modified using dibenzocyclooctyne (DBCO)-NHS. DBCO-HSA-CDDP was reacted with FRN648 dye at a molar ratio of 1:1 for 30 min at 37° C. Fluorescence labeled HSA-CDDP was purified using PD-10 columns (GE Healthcare, Buckinghamshire, UK) and eluted with PBS.
(§5) Cellular uptake of fluorescence labeled HAS or HSA-CDDP(4.1) followed the same procedure described in our previous publication. We incubated cells with FNR648-HSA or FNR648-HSA-CDDP for 2 h at 37° C. In the exogenous SPARC treatment group, human SPARC (5 μg/mL) and each compound (FNR648-HSA or FNR648-HSA-CDDP) were co-incubated for 2 h at 37° C. Five randomized images were acquired from all tests to quantify FNR648-HSA or FNR648-HSA-CDDP uptake by the cells. In each group, the average signal intensity of FNR648-HSA or FNR648-HSA-CDDP was divided by the number of DAPI-positive cells, which represented the number of viable cells in the image. This ratio was considered as cellular uptake of each group and used to quantify cellular uptake of each material.

U87MG-shSPARC cells [6] = test: as above; format: cell-based; conditions: co-treatment with human SPARC 5 μg/mL, 2 h
Protocol: as §4, §5

[7] = test system: U87MG-shSPARC tumor xenograft; test: Xenograft tumor model, anti-tumor effect in vivo; design: species or system BALB/c nude mice
[8] = Biodistribution of CDDP in organs and blood using ICP-MS; format: in vivo, mice; conditions: 72 h after last of 7 IV doses
Protocol: Normal mice were divided into 2 groups (n=4 for each group) and IV administrated with CDDP or HSA-CDDP(4.1) at the same dose and time schedule as the anti-tumor effect examination (3 mg/kg CDDP and equivalent dose of HSA-CDDP as CDDP every other day, seven times). At 72 h after the final IV administration (15 days after first IV administration), mice were euthanized and organs (brain, heart, liver, kidney, spleen, and lung) and blood were acquired and weighed.
(§6) All samples (organs, blood, and tumors) were lyophilized and we analyzed the amount of CDDP using the ICP-MS (NexION 350; Perkin-Elmer, Waltham, MA, USA) installed at the National Center for Inter-university Research Facilities (NCIRF) at Seoul National University.

U87MG tumors = test: Tumor CDDP accumulation using ICP-MS; format: in vivo, mice; conditions: 72 h after last of 7 IV doses
Protocol: At 72 h after the last IV administration (15 days after first administration), mice were euthanized, and the tumor was acquired.
as §6

[9] = Biosafety: body weight and blood biochemical analysis; format: in vivo, mice; conditions: overall conclusion of biosafety study
Protocol: After centrifugation at 4° C. for 20 min, the plasma was collected for blood biochemical analysis. The concentrations of AST, ALT, BUN, and creatinine were analyzed at DKKorea (Seoul, Korea).

U87MG tumor xenograft = test: Xenograft tumor model, anti-tumor effect in vivo
[10] = CCK-8, n=6, Table 2 (CDDP number-dependent HSA)

HSA-CDDP(4.1)
toxicity toward cells (U87MG cells [1]; U87MG and U87MG-shSPARC cells, CCK-8, FIG. 2B): dose-dependent toxicity | IC50 (U87MG cells [1]; CCK-8, n=5, Table 1): 11.5 ± 0.173 µM | IC50 (U87MG-shSPARC cells [2]): ~59.3 µM | apoptotic cell percentage compared with CDDP (U87MG cells [3]; U87MG cells, HSA-CDDP 19.3 μM vs CDDP 4.9 μM): higher apoptotic cell percentage than CDDP | apoptosis rate (U87MG cells [3]; U87MG, 19.3 μM, 72 h, FIG. 3): 23.2% | apoptosis induction (U87MG cells [3]; different concentrations, FIG. 4B): induced apoptosis in a dose-dependent manner | apoptosis rate (U87MG-shSPARC cells [4]): 8.8% | cellular uptake (U87MG cells [5]): higher uptake of HSA-CDDP(4.1) in U87MG cells than U87MG-shSPARC cells | cellular uptake with exogenous SPARC (U87MG-shSPARC cells [6]): highly accumulated in U87MG-shSPARC cells | tumor growth ([7]; U87MG-shSPARC tumor model, 26 days after first drug treatment, 3 mg/kg CDDP equivalent IV every other day 7 times): no difference in tumor growth to PBS | Median survival ([7]; U87MG-shSPARC tumor xenograft model, 3 mg/kg CDDP equivalent IV 7 times): 32 days | accumulation in the liver [8]: highly accumulated in the liver | accumulation of CDDP in organs ([8]; brain, heart, liver, kidney, spleen, lung): all organs except the brain showed higher accumulation of CDDP | blood distribution ([8]; normal mice, ICP-MS): higher blood distribution than CDDP | accumulation of CDDP, U87MG vs U87MG-shSPARC tumors (U87MG tumors; FIG. 6B): U87MG tumors showed a higher accumulation of CDDP than U87MG-shSPARC tumors | U87MG tumor accumulation of CDDP (U87MG tumors; U87MG tumors, p<0.05): significantly higher than the CDDP group; also recorded: significantly increased CDDP accumulation than the CDDP group | nephrotoxicity in vivo [9]: reduced the nephrotoxicity of CDDP | survival rate (U87MG tumor xenograft; U87MG tumor model vs PBS group, FIG. 5E): prolonged survival time than the PBS group | tumor growth (U87MG tumor xenograft; U87MG tumor model, 12 days after first drug treatment, 3 mg/kg CDDP equivalent IV every other day 7 times, p<0.001): significantly reduced tumor growth than the PBS group | Median survival (U87MG tumor xenograft; U87MG tumor xenograft model, 3 mg/kg CDDP equivalent IV 7 times): 20 days

HSA-CDDP(2.3)
IC50 (U87MG cells [1]; [10]): ~55.2 µM

HSA-CDDP(1.5)
IC50 (U87MG cells [1]; [10]): ~101 µM

HSA-CDDP(5.4)
IC50 (U87MG cells [1]; [10]): 37.64 ± 0.14 µM

HSA-CDDP(7.7)
IC50 (U87MG cells [1]; [10]): 37.3 ± 0.15 µM
